Chains of the proteins cited; added tags and fusions are not shown.
UniProt Q15910, whole entry Y641F: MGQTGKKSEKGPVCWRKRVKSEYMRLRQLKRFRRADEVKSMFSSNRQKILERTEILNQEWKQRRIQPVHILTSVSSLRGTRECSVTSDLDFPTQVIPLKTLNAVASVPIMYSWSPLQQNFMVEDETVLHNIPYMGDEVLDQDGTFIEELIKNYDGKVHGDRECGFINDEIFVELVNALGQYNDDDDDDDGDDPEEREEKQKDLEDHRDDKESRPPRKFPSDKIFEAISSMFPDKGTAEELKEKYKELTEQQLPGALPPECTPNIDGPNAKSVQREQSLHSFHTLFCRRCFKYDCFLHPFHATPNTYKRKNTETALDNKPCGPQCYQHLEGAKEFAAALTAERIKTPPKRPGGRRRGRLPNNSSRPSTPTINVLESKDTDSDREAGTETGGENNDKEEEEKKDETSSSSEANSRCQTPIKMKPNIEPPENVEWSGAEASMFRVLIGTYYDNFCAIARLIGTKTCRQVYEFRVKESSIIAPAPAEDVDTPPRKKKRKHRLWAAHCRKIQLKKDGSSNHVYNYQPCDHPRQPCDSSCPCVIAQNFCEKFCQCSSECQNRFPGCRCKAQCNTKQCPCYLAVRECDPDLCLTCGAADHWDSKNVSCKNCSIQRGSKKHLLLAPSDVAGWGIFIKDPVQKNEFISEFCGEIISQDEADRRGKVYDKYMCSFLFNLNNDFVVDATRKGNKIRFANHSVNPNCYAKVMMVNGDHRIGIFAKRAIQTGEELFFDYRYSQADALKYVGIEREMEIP
UniProt Q15910, whole entry: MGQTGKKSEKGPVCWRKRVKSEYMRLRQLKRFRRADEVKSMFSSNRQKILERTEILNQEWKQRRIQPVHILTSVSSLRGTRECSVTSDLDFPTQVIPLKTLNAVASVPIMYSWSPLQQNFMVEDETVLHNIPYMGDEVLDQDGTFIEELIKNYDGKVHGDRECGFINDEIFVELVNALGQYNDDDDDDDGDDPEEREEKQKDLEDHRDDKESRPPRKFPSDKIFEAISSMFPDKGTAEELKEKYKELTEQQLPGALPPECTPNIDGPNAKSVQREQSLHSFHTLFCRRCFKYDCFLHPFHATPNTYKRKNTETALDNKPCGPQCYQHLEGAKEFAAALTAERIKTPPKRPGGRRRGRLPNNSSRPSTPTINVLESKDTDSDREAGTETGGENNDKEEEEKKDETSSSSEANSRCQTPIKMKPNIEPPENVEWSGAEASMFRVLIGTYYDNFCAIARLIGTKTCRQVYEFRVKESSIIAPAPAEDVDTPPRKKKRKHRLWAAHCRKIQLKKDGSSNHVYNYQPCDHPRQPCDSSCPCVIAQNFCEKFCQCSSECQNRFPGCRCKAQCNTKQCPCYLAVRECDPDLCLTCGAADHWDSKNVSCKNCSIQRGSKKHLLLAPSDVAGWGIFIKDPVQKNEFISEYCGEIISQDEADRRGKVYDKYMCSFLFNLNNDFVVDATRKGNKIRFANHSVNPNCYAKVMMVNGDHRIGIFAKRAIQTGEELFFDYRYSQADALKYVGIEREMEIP

In patent US20200361914A1, “SUBSTITUTED BENZENE AND 6,5-FUSED BICYCLIC HETEROARYL COMPOUNDS” (Epizyme, Inc., priority 2014, published 2020):

How the values were obtained:
[1] = target: Y641 mutant PRC2 enzyme (EZH2 Y641) (Homo sapiens, UniProt Q15910, Y641F); assay: PRC2 enzyme assay on peptide substrate, Y641 mutant EZH2
[2] = target: wild-type PRC2 enzyme (EZH2 WT) (Homo sapiens, UniProt Q15910); assay: PRC2 enzyme assay on peptide substrate, wild-type EZH2

IC50 [1]: 0.1 to 1 µM | IC50 [2]: 1 to 10 µM
SMILES: CCC(C)n1cc(C)c2c(C(=O)NCc3c(C)n(CC)[nH]c3=O)cc(-c3ccc(N4CCNCC4)nc3)cc21 (centres unmarked) [compound 30, 1-(sec-butyl)-N-((1-ethyl-5-methyl-3-oxo-2,3-dihydro-1H-pyrazol-4-yl)methyl)-3-methyl-6-(6-(piperazin-1-yl)pyridin-3-yl)-1H-indole-4-carboxamide]
